Data reported in US4362718A, “Agent for curing peripheral circulation insufficiency” (Yamanouchi Pharmaceutical Co., Ltd., priority 1979, dated 1982).

Assays:
red blood corpuscles [1] = conditions: 0.1% solution; saline alone as high as 20%
red blood corpuscles [2] = assay: Fine opening passability of red blood corpuscles (nitrocellulose membrane filter, 3.0 μm); assay type: cell-based, human; conditions: 0.1% solution; 37° C., 30 minutes; 3.0 μm filter, 80 mmHg/cm^2; compared with α1 -acid glycoprotein

human albumin: commercially available crude human albumin (0.1% solution)
percent hemolysis in case of passing through fine openings (red blood corpuscles [1]): 25 to 30% | passage of red blood corpuscles through the filter (red blood corpuscles [2]): passage of the red blood corpuscles was observed too, but the effect was small as compared with the case of α1 -acid glycoprotein
